This test concerns the target T1, mTET2^CD (Mus musculus, UniProt Q4JK59).
T1 sequence (Q4JK59 1042-1912 limits assumed): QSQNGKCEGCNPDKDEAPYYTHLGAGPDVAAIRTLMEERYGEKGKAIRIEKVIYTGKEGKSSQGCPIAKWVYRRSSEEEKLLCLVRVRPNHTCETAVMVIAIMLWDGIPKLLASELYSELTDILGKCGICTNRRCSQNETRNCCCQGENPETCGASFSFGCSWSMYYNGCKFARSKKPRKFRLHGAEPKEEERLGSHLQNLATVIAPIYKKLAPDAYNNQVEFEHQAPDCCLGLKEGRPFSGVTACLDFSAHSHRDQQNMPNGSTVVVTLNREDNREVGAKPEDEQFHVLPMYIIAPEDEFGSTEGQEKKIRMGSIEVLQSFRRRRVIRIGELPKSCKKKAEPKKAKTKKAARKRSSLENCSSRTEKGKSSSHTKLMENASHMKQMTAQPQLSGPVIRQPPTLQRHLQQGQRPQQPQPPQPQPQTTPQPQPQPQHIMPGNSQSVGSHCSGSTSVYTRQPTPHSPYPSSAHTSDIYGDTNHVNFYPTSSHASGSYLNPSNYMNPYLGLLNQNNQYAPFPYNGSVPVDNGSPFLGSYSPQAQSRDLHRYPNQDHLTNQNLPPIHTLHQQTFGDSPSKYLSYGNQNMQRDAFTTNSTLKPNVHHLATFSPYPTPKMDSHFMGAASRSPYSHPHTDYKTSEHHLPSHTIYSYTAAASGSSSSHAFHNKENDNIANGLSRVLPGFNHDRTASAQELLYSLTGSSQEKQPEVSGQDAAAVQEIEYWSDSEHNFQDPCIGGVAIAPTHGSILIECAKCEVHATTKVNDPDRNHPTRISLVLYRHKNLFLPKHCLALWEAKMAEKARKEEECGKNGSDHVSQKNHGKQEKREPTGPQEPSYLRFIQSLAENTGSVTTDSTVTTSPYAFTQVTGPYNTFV
Type of test: biochemical. The settings on record: read-out: IC50 toward mTET2^CD catalytic activity; 0.1 mM α-KG, 37°C 30 min.

Usually IC50 stands for the concentration needed to halve the response being measured. In the case of succinate, the IC50 was greater than 5 mM.
